Test results published in PubChem BioAssay AID504357 (The Scripps Research Institute Molecular Screening Center, 2011).
This is a selection; strong and weak results do not stand in their true shares. Calls of active or inactive are those of the source. Rule as the data show it: active = inhibition above about 22% (passing the limit was not always enough); inactive = the rest.

Protein sequences, listed by entry. Tags and fused reporters are not part of them.
UniProt P35372, whole entry, looked up: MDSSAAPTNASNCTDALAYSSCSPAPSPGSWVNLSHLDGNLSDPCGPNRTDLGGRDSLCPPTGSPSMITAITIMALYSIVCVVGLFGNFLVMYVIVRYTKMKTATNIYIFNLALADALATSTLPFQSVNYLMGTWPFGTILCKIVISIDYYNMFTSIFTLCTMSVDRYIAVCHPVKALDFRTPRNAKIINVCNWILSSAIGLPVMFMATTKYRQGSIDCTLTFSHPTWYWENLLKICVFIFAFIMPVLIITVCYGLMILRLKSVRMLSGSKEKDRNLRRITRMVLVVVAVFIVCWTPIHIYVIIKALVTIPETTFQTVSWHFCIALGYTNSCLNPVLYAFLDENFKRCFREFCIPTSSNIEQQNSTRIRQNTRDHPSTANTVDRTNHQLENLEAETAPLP
UniProt P41143, whole entry, looked up: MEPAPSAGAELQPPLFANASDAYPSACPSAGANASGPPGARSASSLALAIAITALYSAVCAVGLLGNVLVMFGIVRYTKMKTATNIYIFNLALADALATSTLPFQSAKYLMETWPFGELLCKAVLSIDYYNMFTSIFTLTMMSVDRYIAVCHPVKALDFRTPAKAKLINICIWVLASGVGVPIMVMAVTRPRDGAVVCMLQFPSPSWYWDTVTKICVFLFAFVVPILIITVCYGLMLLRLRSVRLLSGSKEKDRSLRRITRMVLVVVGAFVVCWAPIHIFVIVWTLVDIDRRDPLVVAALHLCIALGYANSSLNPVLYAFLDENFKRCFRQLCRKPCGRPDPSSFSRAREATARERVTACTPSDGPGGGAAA

What follows are compounds tested against Mu-type opioid receptor (Homo sapiens) + Delta-type opioid receptor (Homo sapiens) (UniProt P35372+P41143) (assay: OPRM1-OPRD1 heterodimer inverse agonism – cell-based, luminescence, primary screen (AID 504357;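 also: 0% = cells with DMSO and 100% = wells without cells with DMSO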)). Settings: cell-based MOR-DOR heterodimer luminescence, at 9.3 µM, stronger effect = higher value.

Structure (SMILES) | inhibition
COc1ccc(CNC(=O)CCCCCNC(=O)N2CCn3c2nc2ccccc23)cc1 | inactive: 14%
COc1ccc(C(=O)CSc2nc3ccccc3n2CC(=O)NC(C)(C)C)cc1 | inactive: 4.76%
O=C1Cn2c(nc3ccccc32)N1c1cccc(C(F)(F)F)c1 | inactive: -12.1%
CN1CC[C@]2(CCN3CCc4c(oc5ccccc45)[C@@H]3C2)N(C)C1=O | inactive: 8.5%
COc1ccccc1OP(=O)(Nc1ccc(C)cn1)Oc1ccccc1OC | inactive: 17.2%
CN1CCN(CCN2CCn3c2nc2ccccc23)CC1 | inactive: 12.9%
CCC(C)(C)n1nnnc1CN1CCC(n2c(C)nc3cc(C(F)(F)F)ccc32)CC1 | inactive: -21.5%
Cc1nc2cc(F)ccc2n1C1CCN(Cc2nnnn2CCc2ccccc2)CC1 | inactive: 15.3%
Cc1ccc(N/C(=N/P(=O)(N2CCOCC2)N2CCOCC2)N2CCOCC2)cc1 | inactive: 0.44%
O=C(Cn1cnc2c(NCc3ccccc3)ncnc21)NCc1ccc2c(c1)OCO2 | inactive: 13.8%
CC(O)c1nc2ccccc2n1CC(=O)N1CCN(c2ccccc2)CC1 (stereo unspecified) | inactive: -5.83%
CCOCN(C(=O)Cn1c(C(C)O)nc2ccccc21)c1c(C)cccc1CC (stereo unspecified) | inactive: 12.9%
CCN(CC)CCn1c(NS(=O)(=O)c2ccc(C)cc2)nc2ccccc21 | inactive: -9.71%
CC(CNC(=O)Cn1cnc2c(NCc3ccccc3)ncnc21)c1ccccc1 (stereo unspecified) | inactive: 9.55%
CN(C(=O)Cc1ccc(Cl)c(Cl)c1)[C@H]1CCCC[C@H]1N1CCCC1 | inactive: 5.92%
O=C(CSc1nc2ccccc2n1CC(=O)N1CCCCC1)N1CCCCC1 | inactive: 11.4%
Cc1ccc2c(c1)C1CN(C)CCC1N2C(=O)c1ccc(Cl)c(S(=O)(=O)N2CCOCC2)c1 (stereo unspecified) | inactive: 12.7%
CC1CCCN(C(=O)Cn2c(-c3nonc3N)nc3ccccc32)C1 (stereo unspecified) | inactive: 11%
O=C(Nc1ccccc1)N1CCC(n2c(=O)[nH]c3ccccc32)CC1 | inactive: 3.82%
NC(=O)c1cc([N+](=O)[O-])cc([N+](=O)[O-])c1N | inactive: -11.3%
C[C@H](O)[C@@H]1C(=O)N2CCc3ccc(-c4ccccc4)cc3[C@@H]2C[C@@H]1N(C)C(=O)NC1CCCCC1 | inactive: 10.2%
CSc1nc(N)nc2c1ncn2CC(=O)NCc1ccc2[nH]ccc2c1 | inactive: 19.1%
CN(CC(=O)Nc1ccc(F)c(F)c1F)C(=O)Cn1cnc2c1c(=O)n(C)c(=O)n2C | inactive: -9.08%

Structure (SMILES) | inhibition
CN(C)C(=O)Cn1c(SCC(=O)Nc2ccc3c(c2)OCO3)nc2ccccc21 | inactive: 8.85%
CCC(C(=O)NC1CCCCC1)n1c(SCc2ccc(F)cc2)nc2ccncc21 (stereo unspecified) | inactive: -4.12%
Cc1ccc(-c2csc(N3CCN(c4ccc5nc(-c6ccncc6)n(CCN6CCCCC6)c5c4)CC3)n2)cc1 | inactive: -1.49%
Nc1nonc1-c1nc2ccccc2n1CC(=O)N/N=C\c1ccc(-c2ccc(Cl)cc2)o1 | inactive: -8.2%
Cc1n[nH]c(C)c1CCC(=O)N/N=C/C=C/c1ccccc1 | inactive: 7.3%
COc1ccc(C)cc1S(=O)(=O)N1c2ccc(C)cc2C2CN(C)CCC21 (stereo unspecified) | inactive: 3.95%
O=C1Cn2c(nc3ccccc32)N1c1ccccc1F | inactive: 3.98%
N=c1n(CCCOc2ccc(F)cc2)c2ccccc2n1CC(N)=O | inactive: 17.1%
CCC(=O)Nc1ccc2c(c1)nc1n2CCN(CCOC)C1 | inactive: 2.91%
O=C(c1cccc(Cl)c1)N1CCn2c1nc1ccccc12 | inactive: 18.5%
C=CCOC(=O)C1=C(C)N=C2SCCC(=O)N2C1/C=C/c1ccccc1OC (stereo unspecified) | inactive: 4.16%
CCCCNc1nc2ccccc2n1CC(=O)N1CCc2ccccc2C1 | inactive: 11.2%
O=C(Cn1c(-c2cscn2)nc2ccccc21)Nc1ccc(Cl)cc1 | inactive: 3.78%
CC1CCCC(C)N1C(=O)Cn1c(SCC(=O)NCc2ccc3c(c2)OCO3)nc2ccccc21 (stereo unspecified) | inactive: -2.86%
S=C=Nc1cccc(C2(N3CCCCC3)CCCCC2)c1 | inactive: -7.64%
CCOc1ccc(C(O)Cn2c(=N)n(CCN3CCCCC3)c3ccccc32)cc1 (stereo unspecified) | inactive: 12%
Cn1c(=O)c2ncn(CC(=O)NCCC3=CCCCC3)c2n(C)c1=O | inactive: 1.58%
CCN(CC)CCn1c(/N=C/c2cc(Br)ccc2O)nc2ccccc21 | inactive: 5.8%
Cn1c(=O)c2c(ncn2CC(=O)N2CCN(S(=O)(=O)c3ccc(F)cc3)CC2)n(C)c1=O | inactive: 10.3%
CCCn1c(=O)[nH]c(=O)c2c1nc(-c1ccccc1)n2CCN1CCOCC1 | inactive: 9.17%
CCCCC(=O)N/N=C(C)/C=C/c1ccccc1F | inactive: -16.8%
Cn1c(=O)c2c(ncn2CC(=O)Nc2cc(S(=O)(=O)N3CCCCC3)ccc2O)n(C)c1=O | inactive: 16.2%
CC(C)[C@H](NC(=O)N1CCn2c1nc1ccccc12)C(=O)NCC1CCCO1 (stereo partly specified) | inactive: 9.4%

Structure (SMILES) | inhibition
Cc1ccc(-c2csc(N3CCN(c4cc5c(cc4Cl)nc(-c4ccncc4)n5CCN4CCCCC4)CC3)n2)cc1 | inactive: 3.58%
O=C(NC(Sc1ccncn1)C(Cl)(Cl)Cl)c1ccccc1 (stereo unspecified) | inactive: 10.4%
O=C(Cn1c(CO)nc2ccccc21)NCCc1ccc(F)cc1 | inactive: 5.26%
Nc1ncnc2c1ncn2CCN1CCCCC1 | inactive: 8.94%
CCN(C(=O)Cn1cnc2c1c(=O)n(C)c(=O)n2C)C1CCS(=O)(=O)C1 (stereo unspecified) | inactive: 12.1%
CCN(C(=O)Cn1cnc2c1c(=O)n(C)c(=O)n2C)C1CCCCC1 | inactive: 13.8%
COCCN1CCn2c(nc3cc([N+](=O)[O-])ccc32)C1 | inactive: -0.32%
Oc1ccccc1CNc1ccccn1 | inactive: -7.4%
CCC(=O)N1c2ccc(S(=O)(=O)CCC(=O)N3CCn4c3nc3ccccc34)cc2CC1C (stereo unspecified) | inactive: -6.16%
O=C(Cn1cnc2c(NCc3ccccc3)ncnc21)NCCN1CCOCC1 | inactive: 12.8%
Nc1cc(N)c2nonc2c1[N+](=O)[O-] | inactive: -9.31%
O=C(Nc1nc2ccccc2n1CCN1CCOCC1)c1ccc(Cl)cc1 | inactive: -2.09%
N=c1n(CCOc2ccccc2)c2ccccc2n1CCN1CCOCC1 | inactive: 15.6%
CC(C)CC(=O)NC(Sc1ccc(Cl)cc1)C(Cl)(Cl)Cl (stereo unspecified) | inactive: -19.9%
CSCC[C@H](NC(=O)N1CCn2c1nc1ccccc12)C(=O)NCc1ccc(C)cc1 | inactive: -2.53%
CN(C)CCn1c(COc2ccccc2)nc2ccccc21 | inactive: 11.3%
Cc1ccccc1C(=O)Nc1cccc(NC(=O)Cn2cnc3c(=O)n(C)c(=O)n(C)c32)c1 | inactive: 4.93%
CCc1cccc(CC)c1NC(=O)Cn1c(-c2ccccc2Cl)nc2ccccc21 | inactive: -3.09%
COCCCNC(=O)CC1C(=O)N(Cc2ccccc2)C(C)c2nc3ccccc3n21 (stereo unspecified) | inactive: 15.3%
O=C(Cn1cnc2c(OCc3ccccc3)ncnc21)NCCN1CCOCC1 | inactive: 18.4%
CCCCCCNCCn1cnc2c(N)ncnc21 | inactive: 8.89%
Cc1ccc2c(c1)C1CN(C)CCC1N2C(=S)Nc1ccc(Cl)cc1Cl (stereo unspecified) | inactive: 7.83%
CSc1nc(N)nc2c1ncn2CC(=O)NCCCN1CCCC1=O | inactive: 17.4%

Structure (SMILES) | inhibition
Cn1c(=O)c2c(nc(NCc3ccccc3)n2CC(N)=O)n(C)c1=O | inactive: 11.2%
COc1ccc(CNC(=O)CCNC(=O)N2CCn3c2nc2ccccc23)cc1 | inactive: 13.6%
Cc1cc2ncn(C3CC(=O)N(C)C3=O)c2cc1C (stereo unspecified) | inactive: 12.5%
O=P1(N(CCCl)CCCl)OCCCN1CCCl (stereo unspecified) | inactive: 7.43%
O=P1(N(CCCl)CCCl)Nc2ccccc2N1 | inactive: 12.1%
C=CCSc1nnc(NC(=O)Cn2cnc3c2c(=O)n(C)c(=O)n3C)s1 | inactive: -1.78%
c1ccc(CN2CCC(Nc3nc(-c4ccccc4)nc4ccccc34)CC2)cc1 | inactive: -34.5%
COc1cc(I)ccc1[As](=O)(O)O | inactive: 0.11%
COc1cccc(NC(=O)[C@@H](NC(=O)N2CCn3c2nc2ccccc23)C(C)C)c1 | inactive: 1.74%
CCCCNc1nc2ccccc2n1CC(=O)Nc1c(C)cccc1CC | inactive: 5.32%
CC(O)CNc1nc2ccccc2n1CC(=O)N1CCN(Cc2ccccc2)CC1 (stereo unspecified) | inactive: -2.7%
CCCn1c(=O)[nH]c(=O)c2c1nc(-c1ccc3c(c1)OCCO3)n2CCN1CCOCC1 | inactive: 1.66%
Cn1c(=O)[nH]c(=O)c2c1nc(CN1CCN(c3ccc(F)cc3)CC1)n2CCN1CCOCC1 | inactive: 13.1%
COc1ccc2nc(NP(=O)(c3ccccc3)c3ccccc3)sc2c1 | inactive: 14.2%
CCOC(=O)c1cccc(NC(=O)Cn2c(CC(=O)NC)nc3ccccc32)c1 | inactive: -3.45%
Cc1ccc(NC(=O)Cn2cnc3c(OCc4ccccc4)ncnc32)cc1C | inactive: -5.91%
C(=N\c1nc2ccccc2n1CCN1CCCCC1)/c1cccs1 | inactive: 5.28%
CSCC[C@H](NC(=O)N1CCn2c1nc1ccccc12)C(=O)NCc1ccccc1 | inactive: 16.3%
Cc1ccc(/C=N/NC(=O)Cn2cnc3ccccc32)o1 | inactive: 8.07%
CC(C)N(C(=O)Cn1c(-c2ccccc2Cl)nc2ccccc21)c1ccccc1 | inactive: 9.71%
Cn1c(=O)[nH]c(=O)c2c1nc(N1CCCCCC1)n2CCN1CCCCCC1 | inactive: -10.6%
O=C(CCCCCNC(=O)N1CCn2c1nc1ccccc12)N[C@@H](C(=O)O)c1ccccc1 | inactive: 20%
